This test has as its target T1, human NK3 receptor (Homo sapiens, UniProt P29371).
T1 construct: expressed in transfected cells
The test can be described thus: NK3 receptor efficacy and potency assay (FLIPR calcium). Type of test: cell-based. The note with it: dose-response curve with NKB. Here is the method: BHK cells stably expressing the human NK3 receptor were seeded in 100 μl media in black walled clear-base 96-wells plates (Costar) aiming at a confluency of 95-100% at the day of assay. The assay was performed according to the FLIPR Calcium 4 Assay kit (Molecular Devices). At the day of the assay, the media was removed and the cells were washed once with the HBSS buffer (Hanks BSS buffer, pH 7.4 containing 20 mM Hepes) before 100 μl of a solution of the calcium assay reagent dissolved in the HBSS buffer containing 2.5 mM probinicid was added to the cells. The plates were incubated for 60 min at 34° C., 10% CO2 before use in the FLIPR for examination of fluorescence. […]
For efficacy and potency evaluation of compounds, these were diluted in HBSS buffer prior to test. For test of agonist activity, 25 μl of the diluted compound solution was added and the plate was analyzed for 5 minutes in the FLIPR. […] The plates were subsequently analyzed for 5 minutes before the assay was terminated. The maximal increase in fluorescence over background following each ligand addition was determined. The IC50 value was calculated using sigmoidal variable slope curve fitting, and the cIC50 value was determined using the equation (cIC50=IC50/(1+(EC85/EC50))), where EC85 and EC50 for NKB were determined as described above.

The chains behind the UniProt entries cited, without tags or fusion partners.
UniProt P29371, whole entry: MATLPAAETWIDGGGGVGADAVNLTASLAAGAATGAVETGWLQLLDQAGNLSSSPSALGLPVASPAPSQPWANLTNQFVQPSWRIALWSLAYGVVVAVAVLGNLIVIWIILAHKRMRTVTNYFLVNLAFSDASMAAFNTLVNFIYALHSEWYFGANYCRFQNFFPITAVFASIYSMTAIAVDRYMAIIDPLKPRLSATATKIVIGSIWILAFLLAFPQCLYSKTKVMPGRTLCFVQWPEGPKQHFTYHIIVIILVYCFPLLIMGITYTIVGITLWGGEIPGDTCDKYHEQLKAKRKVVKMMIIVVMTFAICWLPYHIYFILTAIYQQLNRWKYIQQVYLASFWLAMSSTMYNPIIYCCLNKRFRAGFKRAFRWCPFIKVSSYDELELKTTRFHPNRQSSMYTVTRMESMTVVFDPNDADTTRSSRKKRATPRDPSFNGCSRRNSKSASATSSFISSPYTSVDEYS

As for neurokinin B [NKB], the “EC85 concentration of NKB” value is given as roughly 4 nM.

Values taken from US8242134B2, “Isoquinolinone derivatives as NK3 antagonists” (H. Lundbeck A/S, priority 2008, dated 2012).
